# Target: CutC (Oleidesulfovibrio alaskensis, UniProt Q30W70)
# Chains of the proteins cited; added tags and fusions are not shown. Lines headed by an entry give the natural chain unless they say otherwise; changes in a name come on top.
# UniProt Q30W70: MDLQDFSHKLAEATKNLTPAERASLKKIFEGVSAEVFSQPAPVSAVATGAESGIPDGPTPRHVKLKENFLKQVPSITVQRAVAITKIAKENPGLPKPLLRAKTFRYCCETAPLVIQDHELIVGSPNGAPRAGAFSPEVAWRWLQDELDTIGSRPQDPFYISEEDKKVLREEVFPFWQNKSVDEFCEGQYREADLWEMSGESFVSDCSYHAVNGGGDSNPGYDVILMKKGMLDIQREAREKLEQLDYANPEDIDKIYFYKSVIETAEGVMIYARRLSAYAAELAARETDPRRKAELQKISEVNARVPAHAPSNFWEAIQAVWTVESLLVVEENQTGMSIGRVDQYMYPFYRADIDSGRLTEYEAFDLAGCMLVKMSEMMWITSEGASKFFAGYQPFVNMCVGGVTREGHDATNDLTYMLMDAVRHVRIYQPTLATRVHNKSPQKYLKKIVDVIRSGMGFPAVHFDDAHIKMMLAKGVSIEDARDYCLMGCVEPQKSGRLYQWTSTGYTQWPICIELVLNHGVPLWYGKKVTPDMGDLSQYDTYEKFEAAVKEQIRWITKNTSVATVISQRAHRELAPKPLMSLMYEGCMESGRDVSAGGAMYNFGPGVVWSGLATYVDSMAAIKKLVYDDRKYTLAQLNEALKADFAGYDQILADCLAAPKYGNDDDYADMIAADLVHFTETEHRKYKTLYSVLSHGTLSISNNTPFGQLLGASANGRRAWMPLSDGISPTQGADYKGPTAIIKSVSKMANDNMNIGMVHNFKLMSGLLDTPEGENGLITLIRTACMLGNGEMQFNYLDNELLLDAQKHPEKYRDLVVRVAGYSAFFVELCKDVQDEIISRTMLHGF
# Details: 10 mM compound
compound,measurement,value
CN1CCCC(=O)C1,inhibition at 10 mM,20% inhibition at 10 mM

# Source: patent US20220380309A1, “CHOLINE METABOLISM INHIBITORS” (President and Fellows of Harvard College, priority 2018, published 2022)
